# Values of other authors, collected in US20240158750A1, “STROMA-FREE NK CELL DIFFERENTIATION FROM HUMAN PLURIPOTENT STEM CELLS” (The Children's Medical Center Corporation, priority 2021, published 2024).
# Protein sequences, listed by entry. Tags and fused reporters are not part of them. Lines headed by an entry give the natural chain unless they say otherwise; changes in a name come on top.
# UniProt O43463: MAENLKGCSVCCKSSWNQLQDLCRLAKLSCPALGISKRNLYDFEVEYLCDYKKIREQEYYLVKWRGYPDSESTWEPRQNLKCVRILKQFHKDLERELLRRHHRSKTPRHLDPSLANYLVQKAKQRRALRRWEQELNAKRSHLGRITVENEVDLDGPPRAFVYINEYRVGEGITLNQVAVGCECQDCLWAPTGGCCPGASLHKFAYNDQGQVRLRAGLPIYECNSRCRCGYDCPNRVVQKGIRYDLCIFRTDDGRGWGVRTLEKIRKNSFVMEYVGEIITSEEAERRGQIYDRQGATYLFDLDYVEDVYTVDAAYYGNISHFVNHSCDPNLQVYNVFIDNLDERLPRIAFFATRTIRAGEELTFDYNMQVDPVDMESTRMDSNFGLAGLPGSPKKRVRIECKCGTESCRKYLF
# UniProt P26358: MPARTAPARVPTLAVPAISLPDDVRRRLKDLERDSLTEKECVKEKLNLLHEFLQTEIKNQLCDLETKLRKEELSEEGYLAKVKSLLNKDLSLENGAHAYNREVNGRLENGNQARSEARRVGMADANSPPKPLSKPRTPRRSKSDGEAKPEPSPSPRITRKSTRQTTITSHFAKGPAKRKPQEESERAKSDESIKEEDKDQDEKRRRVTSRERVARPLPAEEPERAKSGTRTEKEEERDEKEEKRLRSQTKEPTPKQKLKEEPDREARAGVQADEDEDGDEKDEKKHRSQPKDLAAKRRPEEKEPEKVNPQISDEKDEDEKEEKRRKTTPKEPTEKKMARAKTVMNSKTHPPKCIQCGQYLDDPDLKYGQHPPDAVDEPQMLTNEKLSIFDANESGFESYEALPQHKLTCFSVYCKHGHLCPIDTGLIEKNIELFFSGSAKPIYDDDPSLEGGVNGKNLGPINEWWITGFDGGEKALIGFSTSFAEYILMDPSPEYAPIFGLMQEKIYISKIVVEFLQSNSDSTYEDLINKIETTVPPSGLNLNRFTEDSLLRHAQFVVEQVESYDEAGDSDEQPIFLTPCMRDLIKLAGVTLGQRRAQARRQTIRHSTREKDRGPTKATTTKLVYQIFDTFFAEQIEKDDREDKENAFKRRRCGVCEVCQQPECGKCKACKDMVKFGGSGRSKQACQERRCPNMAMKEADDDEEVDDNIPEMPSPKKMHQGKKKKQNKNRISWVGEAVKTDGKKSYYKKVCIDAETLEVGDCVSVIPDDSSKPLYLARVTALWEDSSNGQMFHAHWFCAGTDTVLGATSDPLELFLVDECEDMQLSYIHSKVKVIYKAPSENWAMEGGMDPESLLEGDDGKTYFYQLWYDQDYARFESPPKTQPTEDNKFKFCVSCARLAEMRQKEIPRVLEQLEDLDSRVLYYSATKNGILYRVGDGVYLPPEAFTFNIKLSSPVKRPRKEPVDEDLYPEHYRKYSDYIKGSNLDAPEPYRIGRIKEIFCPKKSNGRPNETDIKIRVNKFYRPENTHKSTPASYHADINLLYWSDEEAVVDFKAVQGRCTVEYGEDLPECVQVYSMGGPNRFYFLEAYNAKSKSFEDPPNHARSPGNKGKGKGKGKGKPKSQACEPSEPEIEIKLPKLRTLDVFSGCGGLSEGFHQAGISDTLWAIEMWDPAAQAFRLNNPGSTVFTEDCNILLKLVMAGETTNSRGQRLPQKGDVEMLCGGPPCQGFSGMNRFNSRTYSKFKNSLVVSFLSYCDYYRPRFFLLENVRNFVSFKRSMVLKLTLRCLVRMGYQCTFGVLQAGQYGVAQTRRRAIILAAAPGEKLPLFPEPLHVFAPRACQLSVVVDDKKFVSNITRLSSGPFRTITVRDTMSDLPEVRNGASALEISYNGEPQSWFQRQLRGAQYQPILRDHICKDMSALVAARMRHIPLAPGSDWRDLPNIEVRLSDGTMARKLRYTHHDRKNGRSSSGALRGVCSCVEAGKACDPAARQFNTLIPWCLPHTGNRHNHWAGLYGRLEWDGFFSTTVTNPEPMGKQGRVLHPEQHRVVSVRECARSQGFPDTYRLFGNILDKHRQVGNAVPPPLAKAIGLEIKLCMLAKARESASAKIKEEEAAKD
# How the values were obtained:
# G9a = target: T1, G9a (Homo sapiens, UniProt Q96KQ7); details: cited from earlier work
# T1 sequence (Q96KQ7 1-1210): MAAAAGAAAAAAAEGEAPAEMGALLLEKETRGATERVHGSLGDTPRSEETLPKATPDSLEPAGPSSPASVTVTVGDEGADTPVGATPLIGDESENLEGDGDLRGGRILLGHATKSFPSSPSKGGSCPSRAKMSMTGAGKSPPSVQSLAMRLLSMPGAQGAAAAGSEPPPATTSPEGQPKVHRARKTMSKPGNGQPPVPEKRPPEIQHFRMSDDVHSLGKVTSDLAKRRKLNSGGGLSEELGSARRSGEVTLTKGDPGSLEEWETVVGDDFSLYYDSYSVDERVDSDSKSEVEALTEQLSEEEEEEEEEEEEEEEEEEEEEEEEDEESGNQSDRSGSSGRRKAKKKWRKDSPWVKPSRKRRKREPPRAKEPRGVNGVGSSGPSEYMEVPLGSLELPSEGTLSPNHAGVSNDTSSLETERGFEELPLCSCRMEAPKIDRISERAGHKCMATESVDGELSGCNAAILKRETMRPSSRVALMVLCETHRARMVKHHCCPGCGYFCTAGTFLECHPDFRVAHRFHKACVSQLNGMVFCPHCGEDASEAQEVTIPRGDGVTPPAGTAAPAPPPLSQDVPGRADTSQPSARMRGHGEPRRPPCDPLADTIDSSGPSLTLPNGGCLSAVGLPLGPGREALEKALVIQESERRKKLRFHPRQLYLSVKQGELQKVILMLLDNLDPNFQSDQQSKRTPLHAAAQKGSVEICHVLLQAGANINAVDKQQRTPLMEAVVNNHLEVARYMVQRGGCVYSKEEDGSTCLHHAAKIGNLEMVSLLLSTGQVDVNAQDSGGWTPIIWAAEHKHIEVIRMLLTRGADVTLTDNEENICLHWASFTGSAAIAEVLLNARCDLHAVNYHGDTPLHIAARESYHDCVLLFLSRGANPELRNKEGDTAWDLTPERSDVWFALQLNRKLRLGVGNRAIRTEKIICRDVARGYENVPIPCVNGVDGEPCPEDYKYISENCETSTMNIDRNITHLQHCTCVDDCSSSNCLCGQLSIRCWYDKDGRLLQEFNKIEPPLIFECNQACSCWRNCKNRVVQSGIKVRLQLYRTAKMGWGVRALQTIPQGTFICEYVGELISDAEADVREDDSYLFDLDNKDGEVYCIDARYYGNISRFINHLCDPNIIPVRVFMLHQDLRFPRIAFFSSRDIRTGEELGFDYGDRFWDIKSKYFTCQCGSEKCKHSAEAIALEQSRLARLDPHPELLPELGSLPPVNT
# SU39H1 = SU39H1 (Homo sapiens, UniProt O43463); details: up to a concentration of 40 μM; cited from earlier work
# NDMT1 = NDMT1 (Homo sapiens, UniProt P26358); details: up to a concentration of 40 μM; cited from earlier work
structure (smiles),measurement,setting,value
O=C(O)c1ccc2c(c1)nc(NC(=O)c1ccccc1)n2CCCc1ccccc1 [BRD9539],potency compared with BRD4770,G9a,is more potent than
same,selectivity for G9a and PRC2 over SU39H1,SU39H1,selective
same,selectivity for G9a and PRC2 over NDMT1,NDMT1,selective
